Test results published in patent publication US20260146038A1, “NOVEL SALT OF DIMETHYL-2,3-DIHYDRO-1H-INDENE DERIVATIVE AND PROCESSES FOR PREPARING THE SAME” (YUHAN CORPORATION, priority 2022, published 2026).

Columns and labels:
[1] = Water-solubility evaluation; assay type: physicochemical; details: 20° C.
Method: The water-solubilities at 20° C. for the (S)-quinuclidin-3-yl (5-(3-chloro-4-isopropoxyphenyl)-2,2-dimethyl-2,3-dihydro-1H-inden-1-yl)carbamate prepared according to the method disclosed in WO 2021/096238 (‘the compound of WO 2021/096238’, in the form of free base) and the compound obtained in Example 1 were measured.

[2] = Hygroscopicity evaluation by Dynamic Vapor Sorption (DVS); assay type: physicochemical; details: weight change, room temperature (about 25° C.), RH 80%, 24 hours

Row | Substance | Water-solubility [1] | Moisture adsorption [2]
1 | ((1S,4R)-7,7-dimethyl-2-oxobicyclo[2.2.1]heptan-1-yl)methanesulfonic acid salt of (S)-quinuclidin-3-yl ((R)-5-(3-chloro-4-isopropoxyphenyl)-2,2-dimethyl-2,3-dihydro-1H-inden-1-yl)carbamate [Example 1] | 1700 µg/mL | –
2 | HCl salt of (S)-quinuclidin-3-yl ((R)-5-(3-chloro-4-isopropoxyphenyl)-2,2-dimethyl-2,3-dihydro-1H-inden-1-yl)carbamate [Comparative Example 1] | – | 15.6%
3 | citric acid salt of (S)-quinuclidin-3-yl ((R)-5-(3-chloro-4-isopropoxyphenyl)-2,2-dimethyl-2,3-dihydro-1H-inden-1-yl)carbamate [Comparative Example 3] | – | 12.2%
4 | tartaric acid salt of (S)-quinuclidin-3-yl ((R)-5-(3-chloro-4-isopropoxyphenyl)-2,2-dimethyl-2,3-dihydro-1H-inden-1-yl)carbamate [Comparative Example 2] | – | 11.6%
